From ChEMBL document CHEMBL5113471 (Eur J Med Chem, 2022)

The chains behind the UniProt entries cited, without tags or fusion partners.
UniProt P09874, whole entry: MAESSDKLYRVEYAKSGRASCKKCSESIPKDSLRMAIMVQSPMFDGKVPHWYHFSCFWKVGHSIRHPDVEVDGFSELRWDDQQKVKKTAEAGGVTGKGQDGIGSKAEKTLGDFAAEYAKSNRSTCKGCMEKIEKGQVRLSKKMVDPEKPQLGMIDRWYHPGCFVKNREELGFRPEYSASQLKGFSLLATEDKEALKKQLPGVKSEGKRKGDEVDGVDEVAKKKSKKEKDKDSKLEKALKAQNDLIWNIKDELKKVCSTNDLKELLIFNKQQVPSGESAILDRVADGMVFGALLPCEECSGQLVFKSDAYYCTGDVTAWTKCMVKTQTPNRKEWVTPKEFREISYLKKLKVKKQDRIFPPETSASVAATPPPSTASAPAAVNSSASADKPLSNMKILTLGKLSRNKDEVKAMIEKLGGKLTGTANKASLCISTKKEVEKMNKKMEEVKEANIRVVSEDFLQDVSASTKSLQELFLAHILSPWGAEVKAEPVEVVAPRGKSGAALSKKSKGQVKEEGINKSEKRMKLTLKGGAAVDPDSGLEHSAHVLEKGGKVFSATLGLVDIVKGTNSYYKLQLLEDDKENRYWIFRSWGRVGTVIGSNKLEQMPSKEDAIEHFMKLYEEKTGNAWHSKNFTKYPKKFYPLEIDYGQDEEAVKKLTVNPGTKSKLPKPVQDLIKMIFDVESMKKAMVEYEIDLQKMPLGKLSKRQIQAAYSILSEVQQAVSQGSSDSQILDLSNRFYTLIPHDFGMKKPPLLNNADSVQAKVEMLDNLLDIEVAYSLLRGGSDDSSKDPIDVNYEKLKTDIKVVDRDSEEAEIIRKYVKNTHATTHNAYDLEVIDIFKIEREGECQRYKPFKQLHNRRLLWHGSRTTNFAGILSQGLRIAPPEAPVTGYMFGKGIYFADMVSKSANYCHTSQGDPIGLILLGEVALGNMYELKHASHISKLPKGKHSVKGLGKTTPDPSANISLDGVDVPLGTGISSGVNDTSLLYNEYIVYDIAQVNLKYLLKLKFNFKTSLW

Molecular target: Poly [ADP-ribose] polymerase 1 (Homo sapiens, UniProt P09874)
Assay: Potency index, ratio of olaparib IC50 to test compound IC50 for human recombinant PARP1

Ratio IC50: 5
SMILES: C=C1C(=O)OC2C[C@@]3(C)CCC=C(COC(=O)CCN(C)C(=O)c4cc(Cc5n[nH]c(=O)c6ccccc56)ccc4F)C3=CC12 (stereo partly specified)
